Columns and labels:
mice [1] = assay: Y-maze after mTBI; type: in vivo, mouse; details: 2.5 and 5.0 mg/kg BID×5 days post mTBI, tested 7 days after injury; p<0.01 for 2.5, p<0.05 for 5 mg/kg
Experimental: (§1) The same model of concussive head injury described above with respect to FIG. 7 was used in the experiments described below with respect to FIGS. 8 and 9. We evaluated the clinical-behavioral actions of phenserine in the aforementioned simulated mTBI mouse model following two doses (2.5 and 5.0 mg/kg, i.p., BID×5 days) initiated 30 min following injury. […] Previous studies of drug and metabolite concentrations have shown acetylcholinesterase inhibition to be present when any concentration of drug or metabolite have been detected. […] Drug and its metabolites have been shown undetectable when no anticholinesterase activities are present.
Behavioral evaluation of animals subjected to injury in the model was undertaken at 7 days and later after injury, in accord with previous time-dependent studies. The assessed behavior involved (i) recognition memory assessed by the classical novel object recognition paradigm (FIG. 8) and, (ii), spatial memory evaluated by the Y-maze paradigm (FIG. 9), which in prior studies we and others found impaired by the induced injury. The former task refers to the ability to discriminate a previously encountered (familiar) item from a novel one; a task that has become a valuable tool in basic and preclinical research for investigating the neural basis of memory, and that has parallels to visual paired-comparison tasks in studies in humans and monkeys. […]

By UniProt entry, the sequences of proteins in these tests, tags left out. Where a name states a change or a piece, a line headed by the entry shows the natural chain unless it says otherwise.
UniProt P22303: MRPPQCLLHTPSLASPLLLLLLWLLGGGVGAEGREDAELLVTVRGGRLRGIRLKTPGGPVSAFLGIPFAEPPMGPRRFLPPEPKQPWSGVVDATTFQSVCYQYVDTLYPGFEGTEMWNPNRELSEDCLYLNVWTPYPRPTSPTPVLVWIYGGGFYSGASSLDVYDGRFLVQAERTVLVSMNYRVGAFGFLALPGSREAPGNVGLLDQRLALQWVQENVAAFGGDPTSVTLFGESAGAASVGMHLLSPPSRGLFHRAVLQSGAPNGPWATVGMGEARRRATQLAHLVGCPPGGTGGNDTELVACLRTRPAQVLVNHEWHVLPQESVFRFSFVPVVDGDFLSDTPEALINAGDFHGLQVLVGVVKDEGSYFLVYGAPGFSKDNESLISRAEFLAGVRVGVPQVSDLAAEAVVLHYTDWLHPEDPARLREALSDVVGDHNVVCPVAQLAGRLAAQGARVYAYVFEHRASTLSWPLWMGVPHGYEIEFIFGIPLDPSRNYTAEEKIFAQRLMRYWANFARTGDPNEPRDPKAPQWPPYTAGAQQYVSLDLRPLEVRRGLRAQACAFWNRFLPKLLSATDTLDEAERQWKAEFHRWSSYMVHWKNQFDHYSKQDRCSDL

mice [2] = assay: Novel object recognition after mTBI; type: in vivo, mouse; details: 2.5 and 5.0 mg/kg BID×5 days post mTBI, tested 7 days after injury; p<0.01 both doses
Experimental: as §1
Behavioral evaluation of animals subjected to injury in the model was undertaken at 7 days and later after injury, in accord with previous time-dependent studies. The assessed behavior involved (i) recognition memory assessed by the classical novel object recognition paradigm (FIG. 8) and, (ii), spatial memory evaluated by the Y-maze paradigm (FIG. 9), which in prior studies we and others found impaired by the induced injury. […]
Amelioration of spatial and visual memory impairments in a close head, mouse model of mild TBI (mTBI) was assessed using Novel Object Recognition that was performed two days and later following cessation of clinically translatable dosing of phenserine (2.5 and 5.0 mg/kg BID×5 days initiated post mTBI). […]

[3] = 15 mg immediate release dose
Excerpt: FIGS. 33-34 depict two graphs from an Excel spreadsheet. FIG. 33 is a linear plot of plasma level vs time and FIG. 34 is a semi-log plot of plasma conc. vs time.

acetylcholinesterase = acetylcholinesterase (Homo sapiens (Human), UniProt P22303); assay: Acetylcholinesterase activity assay of blood samples, illustrative treatment scenario (Example 14); type: in vivo; details: one week after starting dosing; 10 mg immediate release then 5 mg/hr for 12 hr twice daily
Excerpt: For each of the forthcoming illustrative treatment scenarios provided in Examples 11-14, the extended, controlled-release composition could be combined with an anti-inflammatory drug.
A professional football player presents with a concern that they may be at risk during the upcoming practice and playing season from concussions. They report at least one concussion prior to their professional career while in college play and a second. Both resolved without obvious impairments. They state they are at risk of further concussions and sub-concussive injuries and requests whatever prevention or protection is possible. The doctor prescribes a single immediate release 10 mg phenserine tablet to be taken immediately followed by a daily dosing oral formulation (an extended, controlled-release pill prescribed to release 5 mg/hr for 12 hr) with instructions to take one pill every morning upon arising and every evening with a meal until the playing and practice seasons have ended. To ensure that an adequate brain concentration of drug is present the doctor orders an immediate, followed by one week after starting dosing, acetylcholinesterase activity assay of blood samples. […] Since this is within the active range of the drug the doctor advises the patient to continue the current dosing.

[4] = Estimated EC50/IC50 of phenserine and metabolites for pharmacological activity in brain
Sprague-Dawley rats = assay: Brain ischemia (MCA ligation), post-treatment; type: in vivo, rat; details: 1 mg/kg/day, day 1 to day 4 post-MCA occlusion; p=0.001 vs vehicle

CN1CC[C@@]2(C)c3cc(OC(=O)Nc4ccccc4)ccc3N(C)[C@@H]12 [phenserine, (−)-phenylcarbamoyleseroline]
spatial memory deficit (Y maze preference index) (mice [1]): significantly ameliorated
visual memory deficit (novel object recognition preference index) (mice [2]): significantly ameliorated
t1/2 /Elim [3]: 33 to 55.2 min
blood acetylcholinesterase activity relative to pretreatment activity (acetylcholinesterase): 51%
Estimated EC50 [4]: 24-26 NanoMolar
IC50 ([4]; BNPCE IC50+/−25): 100 nM
infarction area (Sprague-Dawley rats): significantly reduced

From patent US10864192B2, “Compositions and methods for inhibiting brain trauma-induced neurodegeneration and related conditions” (priority 2016, dated 2020)
